Test results from US20200386744A1, “NOVEL SCREENING METHOD FOR TGF-BETA INHIBITOR” (The Doshisha, priority 2017, published 2020).

Test system: immortalized Fuchs' endothelial corneal dystrophy cells (iFECD)
Assay: Caspase 3/7 activity (Caspase-Glo 3/7 Assay) in iFECD under TGF-β2 stimulation, primary and secondary screening
Type: cell-based
Settings: Homo sapiens, 28 h, secondary screening Caspase 3/7 activity divided by cell viability, read-out: Caspase 3/7 activity/Viable cell number (%)
Experimental: 7×10^3 immortalized Fuchs' endothelial corneal dystrophy cells were seeded on a 96-well plate and were cultured for 24 hours under the condition of 5% CO2 at 37° C. Dulbecco's Modified Eagle Medium (DMEM) (nacalai tesque, 26252-94)+10% FBS (Biological Industries/04-001-1A)+1% penicillin-streptomycin (nacalai tesque, 26252-94) was used as the medium. Next, TGF-β2 (manufacturer: R&D Systems, Inc., distributor: Wako Pure Chemical Industries, Ltd./manufacturer codes 302-B2-002, 302-B2-010, distributor codes: 553-62881, 559-62883) (5 ng/mL) alone, or both TGF-β2 (5 ng/mL) and each agent of SCREEN-WELL® FDA Approved Drug Library V2, Japan version (10 μM) were added. After 28 hours under the condition of 5% CO2 at 37° C., cell morphology was observed using a phase difference microscope. Caspase 3/7 activity was then measured using Caspase-Glo 3/7 Assay (Promega, #G8091). DMEM+2% FBS+1% P/S was used as the medium. Caspase 3/7 activity and cell viability in this example were measured using Veritas™ Microplate Luminometer. Such a device enables many samples to be simultaneously measured.
The control group was supplemented with a solvent of each reagent, i.e., DMSO (Dimethyl Sulfoxide, Sterile-filtered) (nacalai tesque, 13408-64). […] Caspase activity was measured after being cultured in Dulbecco's Modified Eagle Medium (DMEM)+2% fetal bovine serum (FBS)+1% penicillin/streptomycin (P/S) for 28 hours. […]

COc1cc(NC(C)CCCN)c2ncccc2c1 (stereo not shown) [Primaquine Phosphate]
activity at 10 µM: 99.4%
